Data on 1 sequence can be found in ChEMBL document CHEMBL1649231, “In vitro activities of panduratin A against clinical Staphylococcus strains” (2009).

This assay deals with Staphylococcus aureus. Nature of the assay: Antimicrobial activity against methicillin-resistant Staphylococcus aureus after 24 hrs by broth microdilution method. Format: functional. Put shortly:
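Clinical isolates came from blood, body fluids, genital secretions, pus or sputum, identified conventionally or by Vitek. MICs were run by CLSI M7-A6 broth microdilution in Mueller-Hinton broth with 5 × 10^5 CFU/ml inoculum. Agents were twofold serially diluted, starting from 10% DMSO. Drug-free and uninoculated controls were included. Plates were incubated aerobically at 37°C for 24 h; MIC is the lowest concentration giving no visible growth.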
On the technique in general: Broth dilution looks for growth in wells or tubes with falling amounts of substance.

One may read the MIC as the lowest concentration found to suppress growth.

GENTAMICIN came in with an MIC of 0.5 µg/mL.
